Source: publication PMC12915296 (Journal of medicinal chemistry, 2025)

Chains of the proteins cited; added tags and fusions are not shown.
UniProt P34972, whole entry: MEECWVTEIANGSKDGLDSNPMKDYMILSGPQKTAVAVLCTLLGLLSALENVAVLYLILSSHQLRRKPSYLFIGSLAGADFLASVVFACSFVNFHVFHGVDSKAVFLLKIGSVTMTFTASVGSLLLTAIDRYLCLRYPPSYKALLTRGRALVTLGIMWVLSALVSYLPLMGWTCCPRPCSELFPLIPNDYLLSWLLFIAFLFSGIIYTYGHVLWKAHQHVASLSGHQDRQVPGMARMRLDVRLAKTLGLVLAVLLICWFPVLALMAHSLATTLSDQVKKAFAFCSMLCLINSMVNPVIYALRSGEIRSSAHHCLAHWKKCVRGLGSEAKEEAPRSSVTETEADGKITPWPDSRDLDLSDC

What was measured:
hCB2 receptor [1] = target: T1, hCB2 receptor (Homo sapiens, UniProt P34972); assay: Inhibition of forskolin-stimulated cAMP accumulation, 3xHA-hCB2-CHO cells; type: cell-based
hCB2 receptor [2] = target: T1, hCB2 receptor; assay: β-arrestin 2 recruitment assay; type: cell-based

Compound `CCCCC/C=C\C/C=C\C/C=C\C/C=C\CCCC(=O)NCCO` [AEA, N-arachidonoylethanolamide] has an EC50 (hCB2 receptor [1]) of 327 nM and an EC50 (hCB2 receptor [2]) of 91 nM.
